# Data reported in PubChem BioAssay AID1460 (National Center for Advancing Translational Sciences (NCATS), 2008).
# Chains of the proteins cited; added tags and fusions are not shown.
# UniProt P10636, whole entry, looked up: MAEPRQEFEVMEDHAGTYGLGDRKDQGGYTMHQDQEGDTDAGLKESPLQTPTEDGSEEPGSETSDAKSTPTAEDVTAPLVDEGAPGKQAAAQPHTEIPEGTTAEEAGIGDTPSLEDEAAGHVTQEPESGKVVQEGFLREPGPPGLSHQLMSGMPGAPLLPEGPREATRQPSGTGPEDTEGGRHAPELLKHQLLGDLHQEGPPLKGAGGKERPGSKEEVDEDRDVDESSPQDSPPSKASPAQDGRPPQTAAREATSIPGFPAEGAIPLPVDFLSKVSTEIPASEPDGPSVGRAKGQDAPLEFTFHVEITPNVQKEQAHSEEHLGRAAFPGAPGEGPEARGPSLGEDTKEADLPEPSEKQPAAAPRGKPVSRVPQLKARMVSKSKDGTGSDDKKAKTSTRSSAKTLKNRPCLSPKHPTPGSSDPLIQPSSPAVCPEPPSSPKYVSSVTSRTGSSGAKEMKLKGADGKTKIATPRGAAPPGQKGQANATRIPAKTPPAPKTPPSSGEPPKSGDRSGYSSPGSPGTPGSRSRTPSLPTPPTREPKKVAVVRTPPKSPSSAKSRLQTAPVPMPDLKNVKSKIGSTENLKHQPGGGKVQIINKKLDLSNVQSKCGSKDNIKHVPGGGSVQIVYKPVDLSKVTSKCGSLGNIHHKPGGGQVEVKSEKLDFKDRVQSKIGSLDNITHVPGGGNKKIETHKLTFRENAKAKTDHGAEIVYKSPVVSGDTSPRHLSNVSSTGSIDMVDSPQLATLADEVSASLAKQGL
# The entries are a selection whose mix differs from that of the whole data set. Records with an inconclusive call do not appear. Where a call stands in place of a potency, no number is given. Activity calls are given as the source filed them. Calls come from the whole dose curve; as a rule, active = well fitted inhibition curve with a large enough effect; inconclusive = small, poorly fitted or top-dose-only effect; inactive = flat fitted curve, though single readings scatter.
# Target: Microtubule-associated protein tau (Homo sapiens) (UniProt P10636)
# Experiment: qHTS for Inhibitors of Tau Fibril Formation, Thioflavin T Binding; note: nearly all actives have a fitted effect of over 55% in size
# Conditions: recombinant tau K18 P301L (four-repeat tau fragment), heparin-induced fibrillization, ThT fluorescence; series mostly up to 57.4 µM
# Potency is the fitted concentration of half-maximal effect.
row,Compound,Potency
1,O=P1(Nc2ncccn2)COc2ccccc2OC1,inactive
2,O=P1(Nc2ccc(Br)cn2)COc2ccccc2OC1,inactive
3,Cc1ccc(OCC(=O)OC2CN3CCC2CC3)cc1 (centres undefined),inactive
4,O=[As](O)(c1cccs1)c1cccs1,inactive
5,Nc1cccc([As](=O)(O)c2ccccc2)c1,inactive
6,Cc1nn(-c2ccccc2)c2c1P(=O)(N1CCOCC1)N(C)C(c1ccccc1)=N2 (centres undefined),inactive
7,CC1CCC(C(C)C)C(OP(=O)(Nc2ccccn2)c2ccccc2)C1 (centres undefined),inactive
8,O=C(/C=C/c1ccccc1)OC1CN2CCC1CC2 (centres undefined),inactive
9,CN(C)C1(CNC(=O)c2ccc(S(C)(=O)=O)cc2)CCCCC1,inactive
10,O=[As](O)(c1ccccc1Br)c1ccccc1Br,inactive
11,CC(C)/C=N\N=C(\N)N[N+](=O)[O-],inactive
12,CN(CCCl)Cc1cc(Cl)c(NC2=NCCN2)c(Cl)c1,inactive
13,CCOP(=O)(Nc1ccc(C)cn1)OCC,inactive
14,O=P1(Nc2ccccn2)COc2ccccc2OC1,inactive
15,Clc1n[nH]nc1-c1nn[nH][15n]1,inactive
16,CCCOP(=S)(Nc1nc(N)cc(=O)[nH]1)OCCC,inactive
17,Cc1ccc(NCCc2c([N+](=O)[O-])cc([N+](=O)[O-])cc2[N+](=O)[O-])cc1,active: 15.8 µM
18,COc1cc(C2NCCC3(OCCO3)C2(C)C)cc(OC)c1OC (centres undefined),inactive
19,CCOP(=O)(Nc1cccc2ccccc12)OCC,inactive
20,COc1cc(C(=O)NCC2(N3CCOCC3)CCCCC2)cc(Cl)c1OC(C)C,inactive
21,O=[As](O)(O)c1cccnc1,inactive
22,O=C(OC1CN2CCC1CC2)c1ccc(Cl)cc1 (centres undefined),inactive
23,CN(C(=O)Cc1ccc(Cl)c(Cl)c1)[C@@H]1CC[C@]2(CCCO2)C[C@H]1N1CCCC1,inactive

row,Compound,Potency
1,O=[As](O)(c1cccc(O)c1)c1cccc(O)c1,inactive
2,Cc1cccc(OCC(=O)OC2CN3CCC2CC3)c1 (centres undefined),inactive
3,NC(=O)Nc1ccc([As](=O)(O)O)cc1,inactive
4,O=[N+]([O-])CC(O)c1ccc([N+](=O)[O-])cc1 (centres undefined),inactive
5,O=[N+]([O-])c1ccc2c(c1)nnn2O,inactive
6,CN(C(=O)Cc1ccccc1)[C@@H]1CC[C@]2(CCCO2)C[C@H]1N1CCCC1,inactive
7,CCOP1(=S)c2c(C)nn(CCC#N)c2N=C(c2ccc(F)cc2)N1C (centres undefined),inactive
8,CS(=O)(=O)c1cc([N+](=O)[O-])c2no[n+]([O-])c2c1,active: 8.91 µM
9,CCOP1(=S)c2c(C)nn(CCC#N)c2N=C(c2ccccc2F)N1C (centres undefined),inactive
10,O=P(Nc1nccs1)(Oc1ccccc1)Oc1ccccc1,inactive
11,Nc1ccccc1[As](=O)(O)c1ccccc1,inactive
12,O=C(O)COc1ccc([As](=O)(O)O)cc1[N+](=O)[O-],inactive
13,CC(C)c1ccc(OP(=O)(Nc2ccccn2)Oc2ccccc2F)cc1 (centres undefined),inactive
14,ClCCSc1nnc(-c2cccnc2)o1,inactive
15,CC(C)NC(=O)NP(=O)(Oc1ccccc1)Oc1ccccc1,inactive
16,O=[As](O)(c1ccc(O)cc1)c1ccccc1O,inactive
17,C[As](=O)(O)c1cccc(C(=O)O)c1,inactive
18,Cc1ccc(OP(=O)(Nc2ccc([N+](=O)[O-])cn2)Oc2ccc(C)cc2)cc1,inactive
19,COc1ccc(N/C(=N/P(=O)(N2CCOCC2)N2CCOCC2)N2CCOCC2)cc1,inactive
20,O=C(OC1CN2CCC1CC2)C12CC3CC(CC(C3)C1)C2 (centres undefined),inactive
21,Cc1cc(=O)[nH]c(N[N+](=O)[O-])n1,inactive
22,COc1ccc2nc(NP(=O)(c3ccccc3)c3ccccc3)sc2c1,inactive
23,COc1cc(I)ccc1[As](=O)(O)O,inactive

row,Compound,Potency
1,CCOC(=O)c1ccc(NC(=O)C(C)(CCl)SC)cc1 (centres undefined),inactive
2,COP1(=S)c2c(C)nn(CCC#N)c2N=C(c2ccc(F)cc2)N1C (centres undefined),inactive
3,O=C(COc1ccccc1)OC1CN2CCC1CC2 (centres undefined),inactive
4,CCOC(=O)Nc1cccc([As](=O)(O)O)c1,inactive
5,O=[N+]([O-])c1ccc(Nc2ccc(Oc3ccc([N+](=O)[O-])cc3[N+](=O)[O-])cc2)c([N+](=O)[O-])c1,inactive
6,O=P(Nc1ccccn1)(c1cccc2ccccc12)c1cccc2ccccc12,inactive
7,Cc1cc(SC(NC=O)C(Cl)(Cl)Cl)ncn1 (centres undefined),inactive
8,CCOC(=O)Nc1ccc([As](=O)(O)O)c(O)c1,inactive
9,O=[N+]([O-])c1ncn(CCn2ncnc2[N+](=O)[O-])n1,inactive
10,O=[N+]([O-])c1cccc(NC2=NCC(CBr)S2)c1 (centres undefined),inactive
11,O=C(O)CNc1ccc([As](=O)(O)O)cc1,inactive
12,O=C(Nc1cc([As](=O)(O)O)ccc1O)c1ccccc1,inactive
13,Nc1ccc([As](=O)(O)c2ccc(N)cc2)cc1,inactive
14,CCN(/C(=N/P(=O)(N1CCOCC1)N1CCOCC1)N1CCOCC1)c1ccc(OC)cc1,inactive
15,CC(C)=N/N=C(\N)N[N+](=O)[O-],inactive
16,CN(C)C(=O)OCCc1n(C)cc[n+]1C,inactive
17,CC1CCN(C(=O)Oc2c(Cl)cc(Cl)c3cccnc23)CC1,inactive
18,CC(=O)C1=CCCC2CCC1N2 (centres undefined),inactive
19,O=[N+]([O-])c1cccc2n[nH]nc12,inactive
20,CC(=O)N1C2C3N(C(C)=O)C1C1N(C(C)=O)C(C(N1C(C)=O)N3C(C)=O)N2C(C)=O,inactive
21,Cc1ccc(NP(=O)(Oc2ccccc2)Oc2ccccc2)nc1,inactive
22,O=[N+]([O-])c1cc([N+](=O)[O-])c(CCNc2ccccc2)c([N+](=O)[O-])c1,active: 2.82 µM
23,CC(C)CC(=O)NC(Sc1ccc(Cl)cc1)C(Cl)(Cl)Cl (centres undefined),inactive

row,Compound,Potency
1,Oc1ccccc1CNc1ccccn1,inactive
2,Cc1c2non([O-])c-2c(C)[n+](=O)[n+]1[O-],active: 11.2 µM
3,O=C(NC(Sc1ccncn1)C(Cl)(Cl)Cl)c1ccccc1 (centres undefined),inactive
4,NC(=O)c1cc([N+](=O)[O-])cc([N+](=O)[O-])c1N,inactive
5,CC1=NCCc2c1[nH]c1ccccc21,active: 12.6 µM
6,Cc1ccc(N/C(=N/P(=O)(N2CCOCC2)N2CCOCC2)N2CCOCC2)cc1,inactive
7,COc1ccccc1OP(=O)(Nc1ccc(C)cn1)Oc1ccccc1OC,inactive
8,Cc1ccc(OP(=O)(Nc2nccs2)Oc2ccc(C)cc2)cc1,inactive
9,Clc1ccc(Cl)c(NC2=NCC(CBr)S2)c1 (centres undefined),inactive
10,CN1CCCC(OC(=O)C(c2ccccc2)c2ccccc2)C1 (centres undefined),inactive
11,CCN(N=Nc1nonc1N)c1nonc1N,inactive
12,CC(=O)Nc1ccc([As](=O)(O)O)cc1,inactive
13,O=P(Nc1nc2ccc(Cl)cc2s1)(c1ccccc1)c1ccccc1,inactive
14,CCOP(=O)(Nc1ccccc1)OCC,inactive
15,Cc1cc(SC(NC(=O)c2ccc(F)cc2)C(Cl)(Cl)Cl)ncn1 (centres undefined),inactive
16,Cc1ccc(NP(=O)(Oc2ccccc2F)Oc2ccccc2F)nc1,inactive
17,COC(=O)c1cc2c(s1)N=C(c1ccccc1)N(C)P2(=O)N1CCOCC1 (centres undefined),inactive
18,CC(=O)NC(SC(=S)N(CC(C)C)CC(C)C)C(Cl)(Cl)Cl (centres undefined),inactive
19,Cc1ccc(OP(=O)(Nc2ccccn2)Oc2ccc(C)cc2)cc1,inactive
20,CCC(=O)N1C2C3N(C(=O)CC)C1C1N(C(=O)CC)C(C(N1C(=O)CC)N3C(=O)CC)N2C(=O)CC,inactive
21,Cc1ccccc1OP(=O)(Nc1ccccn1)Oc1ccccc1C,inactive
22,CN(C)C(=O)Oc1noc2ccccc12,inactive
23,O=c1c2cc([N+](=O)[O-])ccc2[nH]c2c([N+](=O)[O-])cc([N+](=O)[O-])cc12,active: 14.1 µM

row,Compound,Potency
1,CCNC(=S)/N=C(\N)N[N+](=O)[O-],inactive
2,O=C(NC1CCS(=O)(=O)C1)NP(=S)(Oc1ccccc1)Oc1ccccc1 (centres undefined),inactive
3,c1ccc(-c2nn[nH]n2)c(-c2nn[nH]n2)c1,inactive
4,Cc1ccc(NP(=O)(Oc2cccc(C)c2)Oc2cccc(C)c2)nc1,inactive
5,CCOC(=O)NC(Sc1ccccc1)C(Cl)(Cl)Cl (centres undefined),inactive
6,C[C@@H]1C=CCP(=O)(Oc2ccccc2)O1 (some centres undefined),inactive
7,C[C@H]1OP(=O)(Oc2ccccc2)C[C@@H]2O[C@@H]21 (some centres undefined),inactive
8,CC(=O)Nc1ccc([As](=O)(O)O)c(O)c1,inactive
9,CC(=O)Nc1ccc(Oc2c([N+](=O)[O-])cc([N+](=O)[O-])cc2[N+](=O)[O-])cc1,inactive
10,O=P1(Nc2nc3ccc(Cl)cc3s2)COc2ccccc2O1 (centres undefined),inactive
11,CCOc1ccc(C2=NCC(CBr)S2)cc1 (centres undefined),inactive
12,CC(C)(C)C(=O)NC(Sc1ccccc1)C(Cl)(Cl)Cl (centres undefined),inactive
13,CC(C)C(=O)NC(Sc1ccccc1)C(Cl)(Cl)Cl (centres undefined),inactive
14,O=P(Nc1nccs1)(c1ccccc1)c1ccccc1,inactive
15,c1nnnn1CCn1cnnn1,inactive
16,O=[As](O)(c1ccccc1)c1ccc(O)cc1,inactive
17,Nc1ccc([As](=O)(O)c2ccc([N+](=O)[O-])cc2)cc1,inactive
18,C(Cc1nn[nH]n1)Cc1nn[nH]n1,inactive
19,O=C(OC1CN2CCC1CC2)c1cccc(Cl)c1 (centres undefined),inactive
20,O=P(Nc1ccccn1)(c1ccc(Br)cc1)c1ccc(Br)cc1,inactive
21,C[C@H]1OP(=O)(Oc2ccccc2)[C@H](O)[C@H](O)[C@H]1N=[N+]=[N-] (some centres undefined),inactive
22,CN(C(=O)Cc1ccccc1)[C@H]1CC[C@@]2(CCCO2)C[C@@H]1N1CCCC1,inactive
